{"source": "patent US5994323A", "about": "“Pharmaceutical compositions comprising clioquinol in combination with vitamin B12 and therapeutic and prophylactic uses thereof” (priority 1997, dated 1999)", "key": {"[1]": {"test_system": "zinc precipitated Aβ", "experiment": "Chelating ability: washing of zinc-aggregated synthetic Aβ on nylon membrane, anti-Aβ 6E10 / ECL", "format": "biochemical", "settings": "10 ng synthetic Aβ aggregated with 25 μM ZnCl; wash with TBS containing 2 μM chelator; 100% for TBS alone", "protocol": "Samples of 10 ng synthetic Aβ were placed in microtitre wells and caused to aggregate by the addition of 25 μM ZnCl. The aggregates were then transferred to a 0.2 μm nylon membrane by filtration. […] The membrane was fixed, probed with the anti Aβ monoclonal antibody 6E10 and developed for exposure to ECL-film. The transmittance of the ECL-film was measured and the relative signal strength calculated based on 100% for TBS alone."}, "[2]": {"test_system": "Aβ", "experiment": "Resolubilization of amyloid aggregates in Alzheimer's disease brain homogenates (Western blot of supernatants)", "format": "biochemical, human", "settings": "% of the final PBS/clioquinol extract (100%=800 nM clioquinol)"}}, "data": [{"molecule": "Oc1c(I)cc(Cl)c2cccnc12", "note": "[clioquinol, 5-chloro-7-iodo-8 hydroxyquinoline]", "values": [{"measurement": "Relative signal strength of Aβ remaining on membrane", "setting": "[1]", "result": 49, "unit": "%"}, {"measurement": "Optimal concentration for solubilization of Aβ", "setting": "[2]", "result": 10, "unit": "%"}]}]}
